Test results taken from PMC11272584 (Nature Metabolism, 2024).
Changes are numbered by the printed parent chain.

Columns and labels:
[1] = molecular target: T1, GIPR I378M (Homo sapiens, UniProt P48546, I378M); assay: cAMP accumulation; format: cell-based; design: host or cells: HEK293
T1 sequence (P48546 22-466 I378M): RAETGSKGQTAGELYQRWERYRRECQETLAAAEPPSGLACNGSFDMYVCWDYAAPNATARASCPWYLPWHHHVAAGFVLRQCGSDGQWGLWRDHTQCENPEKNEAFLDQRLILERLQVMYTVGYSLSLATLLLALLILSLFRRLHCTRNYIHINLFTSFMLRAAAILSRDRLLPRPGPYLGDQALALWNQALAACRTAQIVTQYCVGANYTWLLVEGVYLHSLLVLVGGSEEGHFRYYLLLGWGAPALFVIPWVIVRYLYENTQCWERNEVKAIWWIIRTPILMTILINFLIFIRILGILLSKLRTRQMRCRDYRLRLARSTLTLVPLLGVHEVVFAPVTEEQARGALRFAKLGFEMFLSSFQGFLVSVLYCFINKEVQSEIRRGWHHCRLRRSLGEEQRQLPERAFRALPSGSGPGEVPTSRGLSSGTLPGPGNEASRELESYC

[2] = molecular target: T2, GIPR I299V (Homo sapiens, UniProt P48546, I299V); conditions: GIPR I299V (5.39), mean, n = 3, duplicate
T2 sequence (P48546 22-466 I299V): T1 sequence (P48546 22-466 I378M) with I278V, M357I

[3] = molecular target: T3, GIPR V99I (Homo sapiens, UniProt P48546, V99I); conditions: GIPR V99I (ECD), mean, n = 5, duplicate
T3 sequence (P48546 22-466 V99I): T1 sequence (P48546 22-466 I378M) with V78I, M357I

[4] = molecular target: T4, GIPR H166Y (Homo sapiens, UniProt P48546, H166Y); conditions: GIPR H166Y (ICL1), mean, n = 5, duplicate
T4 sequence (P48546 22-466 H166Y): T1 sequence (P48546 22-466 I378M) with H145Y, M357I

[5] = molecular target: T5, GIPR W233* (Homo sapiens, UniProt P48546); assay: cAMP accumulation; format: cell-based
T5 construct: host or cells: HEK293

[6] = molecular target: T6, GIPR E288G (Homo sapiens, UniProt P48546, E288G); conditions: HEK293A, 1 µM GIP minus vehicle, n = 4, P = 0.7001
T6 sequence (P48546 22-466 E288G): T1 sequence (P48546 22-466 I378M) with E267G, M357I

[7] = molecular target: T3, GIPR V99I; conditions: HEK293A, 1 µM GIP minus vehicle, n = 4, P = 0.000746
[8] = HEK293, GIP(1–42) 1 pM–100 nM, 30 min 37 °C, mean of n = 3
[9] = HEK293, Hill slope 1.0, mean of n = 3

For “glucose-dependent insulinotropic polypeptide [GIP]”, the cAMP production class [1] was “WT-like cAMP production”, the “cAMP (Emax)” value [1, 8] was 78 % of WT GIPR activity and the “logEC50 (cAMP)” value [1, 9] was -11.1. For the same substance, the “logEC50 (Arrestin)” value ([2]; Hill slope 1.0) was -9.0, the “Arrestin (Emax)” value ([2]; normalized to WT GIPR) was 76 and the “logEC50 (Arrestin)” value ([3]; Hill slope 1.0) was -8.9. For the same substance, the “Arrestin (Emax)” value ([3]; normalized to WT GIPR) was 62, the “logEC50 (Arrestin)” value ([4]; Hill slope 1.0) was -9.2 and the “Arrestin (Emax)” value ([4]; normalized to WT GIPR) was 36. For the same substance, the “cAMP (Emax)” value [5, 8] was 86 % of WT GIPR activity, the “logEC50 (cAMP)” value [5, 9] was -8.8 and the “Mean of ΔBRET” value [6] was 0.0045. For the same substance, the “Mean of ΔBRET” value [7] was 0.0517.
